Among the data in US20040171650A1, “Novel anthelmintic and insecticidal compositions” (priority 2003, published 2004) are IC50 values, retold here.

By UniProt entry, the sequences of proteins in these tests, tags left out. Residues count along the entry.
UniProt Q7KRX1, 1-357: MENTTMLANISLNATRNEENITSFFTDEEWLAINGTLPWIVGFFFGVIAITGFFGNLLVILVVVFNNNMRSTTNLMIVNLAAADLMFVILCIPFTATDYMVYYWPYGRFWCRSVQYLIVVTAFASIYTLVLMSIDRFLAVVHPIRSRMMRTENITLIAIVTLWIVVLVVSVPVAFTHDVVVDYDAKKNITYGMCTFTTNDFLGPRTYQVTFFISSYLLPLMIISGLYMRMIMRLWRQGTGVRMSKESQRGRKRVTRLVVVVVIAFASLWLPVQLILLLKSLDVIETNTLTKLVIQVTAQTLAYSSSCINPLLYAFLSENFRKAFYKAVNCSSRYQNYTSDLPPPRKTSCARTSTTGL

The experiment addresses DAR-2 (Drosophila melanogaster, UniProt Q7KRX1). The experiment is described as follows: DAR-2 (allatostatin receptor) calcium response FLIPR assay in transfected CHO cells. The settings on record: CHO cells transfected with DAR-2 DNA; calcium signal (Fluo-3AM, FLIPR). How it is done:
Compounds of the invention were evaluated in an allatostatin receptor binding assay as has been described (Larsen, M. J. et. al., Biochemical and Biophysical Reseach Communications, 2001, 286, 895-901; Lowery, D. E., et. al., 2001, WO 01/31005). Anthelmintic activity was evaluated in a Ascaris suum muscle tension assay as has been described (Bowman, J. W., et. al., J Neurophys., 1995, 74(5), 1880-8; Davis, R. E., et. al., J. Neurosci., 1989, 9, 403-414).
As previously described (Larsen op.cit.), CHO cells were transfected with the DAR-2 DNA on 10 cm plates ([…]) and were trypsinized 24 h after transfections and were plated at a density of 2×10^4 cells/well in black-walled, 96-well plates and incubated for an additional 24 hrs at 37° C./5% CO2 either with or without pertussis toxin (PTX, 100 ng/ml). On the day of treatment, the media were aspirated, the cells were washed with HBBS/HEPES (Hank's Balanced Salt Solution, supplemented with 10 mM HEPES) and incubated with 4 μM Fluo-3AM in HBSS/HEPES, additionally supplemented with 2.5 mM probenecid to inhibit multi drug resistant pump (0.1 ml/well) for 1 h at 37° C./5% CO2. Plates were washed twice with warm HBSS/HEPES/ probenecid buffer immediately prior to activation of the calcium response and 100 μl buffer/per well was left after the last wash. A calcium response was initiated by the addition of candidate receptor agonist compounds (2× concentration in HBSS/HEPES, 100 μl/well). The DSK-R1/SHEP cells were loaded for 1 h at 37° C./5% CO2 with 4 μM calcium green/0.02% pluronic acid in modified Earle's balanced salt solution containing 4 mM CaCl2 dihydrate, 0.8 mM MgSO4.7H2O, 20 mM NaCl, 20 mM Tris-HEPES, 120 mM N-methyl-D-glucamine/HCl, 5.3 mM KCl, […], and 9 mM Tris base. Fluorescence was measured on a 96-well plate-based fluorescence imaging plate reader (FLIPR) with an argon laser (Molecular Devices, Sunnyvale, Calif.). Basal fluorescence of cells was measured for 20 seconds prior to addition of candidate agonist and the basal fluorescence level was subtracted from the response signal. The calcium signal was measured for approximately 200 seconds with readings every two seconds. Calcium ionophore A23187 was used as a control for non-receptor specific calcium release. […]
The IC50 is the concentration at which inhibition is half-maximal. In the case of `COc1ccc(-n2c(SCC(=O)c3ccc(F)cc3)nnc2-c2ccsc2)cc1`, the IC50 was found to be 14600 nM.
Next, `COc1ccc(-n2c(SCC(=O)c3ccc(Cl)cc3)nnc2-c2ccncc2)cc1`: 0.002 nM.
On to `O=C(CSc1nnc(-c2ccncc2)n1-c1ccccc1F)c1ccc(Cl)cc1Cl`, for which the IC50 is 0.16 nM.
Consider `COc1ccc(-n2c(SCC(=O)c3ccc(F)cc3)nnc2-c2ccncc2)cc1`, for which the IC50 was determined as 898 nM.
In the case of `COc1ccc(-n2c(SCC(=O)c3ccc(Cl)cc3Cl)nnc2-c2ccncc2)cc1`, the IC50 is 414 nM.
For `COc1ccc(C(=O)CSc2nnc(-c3ccncc3)n2-c2ccc(Cl)cc2)cc1`, the IC50 stood at 0.0027 nM.
As to `COc1ccc(C(=O)CSc2nnc(-c3ccncc3)n2-c2ccc(OC)cc2)cc1`, the IC50 came out at 34 nM.
With `Cc1ccc(-n2c(SCC(=O)c3ccc(Cl)cc3Cl)nnc2-c2ccncc2)cc1`, the half-maximal inhibitory concentration (IC50) came out at 4800 nM.
